This is an account of results in patent US4833241A, “Anthracycline compound” (Kirin Beer Kabushiki Kaisha, priority 1986, dated 1989).

For the experiment, the system named is P388 leukemia. The experiment is described as follows: Antitumor activity in CDF1 mice with intraperitoneally transplanted P388 leukemia, i.v. administration, 30-day survival. In kind it is in vivo.

Structures are written as SMILES.

In turn, `CC[C@]1(O)Cc2c(O)c3c(c(O)c2[C@@H](O[C@H]2C[C@H](N4CCOCC4)[C@H](O)[C@H](C)O2)C1)C(=O)c1c(O)cccc1C3=O` [M-R20X, 3'-deamino-3'-(4-morpholinyl)-13-deoxocarminomycin] showed a Therapeutic index of 1.6.
